Results as given in ChEMBL document CHEMBL4196120, “Inhibition of Connexin Hemichannels by New Amphiphilic Aminoglycosides without Antibiotic Activity” (ACS Med Chem Lett, 2018).

What was measured:
[1] = test system: Staphylococcus aureus; test: Toxicity against Staphylococcus aureus ATCC 25923 measured after 18 to 24 hrs; type: organism-based; conditions: in vivo
[2] = test system: HeLa; test: Cytotoxicity against human HeLa cells assessed as reduction in cell viability up to 100 ug/ml after 24 hrs by MTT assay; type: cell-based
[3] = test system: Escherichia coli; test: Toxicity against Escherichia coli ATCC 25922 measured after 18 to 24 hrs; type: ADME, organism-based; conditions: in vivo

[N-]=[N+]=NC[C@H]1O[C@H](O[C@H]2[C@H](O)[C@@H](O[C@@H]3O[C@H](CO)[C@@H](O)[C@H](N=[N+]=[N-])[C@H]3O)[C@H](N=[N+]=[N-])C[C@@H]2N=[N+]=[N-])[C@H](O)[C@@H](O)[C@@H]1O
MIC [1]: ≥ 128 µg/mL
Activity [2]: Non-Toxic
MIC [3]: ≥ 128 µg/mL
